In patent US20160326143A1, “COMPOUNDS AND USES” (AstraZeneca AB, priority 2015, published 2016) one finds IC50 data, which are given here for one compound.

The chains behind the UniProt entries cited, without tags or fusion partners. Where a name states a change or a piece, a line headed by the entry shows the natural chain unless it says otherwise.
UniProt Q16873: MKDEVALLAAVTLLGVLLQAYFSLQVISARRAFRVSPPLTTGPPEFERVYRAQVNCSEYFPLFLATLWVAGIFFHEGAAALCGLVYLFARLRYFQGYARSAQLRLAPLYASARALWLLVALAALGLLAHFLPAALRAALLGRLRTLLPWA

The structures appear in SMILES notation.

In the assay the target is human recombinant purified LTC4 synthase (Homo sapiens (Human), UniProt Q16873). The note with it: read-out: hLTC4 synthase IC50; Test B (Examples 62-65); substrate LTA4 methyl ester, product detected by LCMSMS; median of at least two determinations.

`CCCN(c1cnc(C(=O)[C@H]2C[C@@H]2C(=O)O)c(OC)n1)c1cc(Cl)c(F)cc1F` [Example 64, (1S,2S)-2-({5-[(5-Chloro-2,4-difluorophenyl)(propyl)amino]-3-methoxypyrazin-2-yl}carbonyl)cyclopropanecarboxylic acid]: the IC50 (commonly the concentration needed to halve the response being measured) amounted to 0.483 nM.
